The text below walks through data of ChEMBL document CHEMBL1133522, “Chiral resolution, pharmacological characterization, and receptor docking of the noncompetitive mGlu1 receptor antagonist (+/-)-2-hydroxyimino- 1a, 2-dihydro-1H-7-oxacyclopropa[b]naphthalene-7a-carboxylic acid ethyl ester” (J Med Chem, 2000).

By UniProt entry, the sequences of proteins in these tests, tags left out. Where a name states a change or a piece, a line headed by the entry shows the natural chain unless it says otherwise.
UniProt Q13255: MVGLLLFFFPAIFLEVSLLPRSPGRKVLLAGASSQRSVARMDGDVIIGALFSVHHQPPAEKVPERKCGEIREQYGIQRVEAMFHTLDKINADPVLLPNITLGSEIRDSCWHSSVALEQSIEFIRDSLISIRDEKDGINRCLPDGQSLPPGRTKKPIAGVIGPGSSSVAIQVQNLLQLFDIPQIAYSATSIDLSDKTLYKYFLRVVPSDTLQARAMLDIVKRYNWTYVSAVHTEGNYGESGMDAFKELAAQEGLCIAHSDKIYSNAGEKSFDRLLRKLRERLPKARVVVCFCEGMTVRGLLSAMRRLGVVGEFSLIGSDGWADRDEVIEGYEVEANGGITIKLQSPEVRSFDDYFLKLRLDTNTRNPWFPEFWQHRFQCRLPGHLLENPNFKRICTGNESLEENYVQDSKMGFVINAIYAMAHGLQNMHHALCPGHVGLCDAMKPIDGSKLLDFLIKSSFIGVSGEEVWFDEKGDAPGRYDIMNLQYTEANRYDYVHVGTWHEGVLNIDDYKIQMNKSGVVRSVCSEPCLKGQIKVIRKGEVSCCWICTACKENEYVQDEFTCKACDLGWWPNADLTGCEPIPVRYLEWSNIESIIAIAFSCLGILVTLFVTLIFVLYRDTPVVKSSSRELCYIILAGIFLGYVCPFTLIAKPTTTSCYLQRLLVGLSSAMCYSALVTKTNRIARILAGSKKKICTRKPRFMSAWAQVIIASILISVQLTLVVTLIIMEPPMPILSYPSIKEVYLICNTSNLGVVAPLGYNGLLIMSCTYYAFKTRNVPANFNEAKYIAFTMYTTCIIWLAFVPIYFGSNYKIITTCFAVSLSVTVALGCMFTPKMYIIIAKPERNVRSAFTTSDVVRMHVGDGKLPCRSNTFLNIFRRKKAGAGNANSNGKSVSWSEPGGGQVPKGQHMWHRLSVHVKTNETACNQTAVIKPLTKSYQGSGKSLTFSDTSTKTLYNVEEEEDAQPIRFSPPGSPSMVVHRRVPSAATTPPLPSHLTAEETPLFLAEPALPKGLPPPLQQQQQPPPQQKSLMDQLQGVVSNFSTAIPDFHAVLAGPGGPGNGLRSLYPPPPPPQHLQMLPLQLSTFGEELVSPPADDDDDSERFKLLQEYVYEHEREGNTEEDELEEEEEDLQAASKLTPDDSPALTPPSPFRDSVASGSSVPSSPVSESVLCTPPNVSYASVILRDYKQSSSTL

For test [1], the target named is T1, Metabotropic glutamate receptor 1 (Homo sapiens, UniProt Q13255). Conditions: CHO; 100 uM.
Test [2] addresses T1, Metabotropic glutamate receptor 1. Conditions: CHO; 100 uM. This is another data set of the same source.

What is called inhibition is how much of the control response was suppressed. Read a high inhibition as a strong effect.

As for `COC(=O)[C@@H](Cc1ccccc1)NC(=O)[C@@]12C[C@@H]1/C(=N\O)c1ccccc1O2`, the inhibition in test [1] was 23%.

Compound `COC(=O)[C@H](Cc1ccccc1)NC(=O)[C@]12C[C@H]1/C(=N\O)c1ccccc1O2` displayed an inhibition in test [2] of 48%.
